The values below are quoted from earlier work in article PMC4475445 (Journal of immunology (Baltimore, Md. : 1950), 2015).

Sequences of proteins named here, by UniProt entry; tags and fusion partners are left off. A change or cut given only in a name is not applied to a line headed by its entry.
UniProt Q06187: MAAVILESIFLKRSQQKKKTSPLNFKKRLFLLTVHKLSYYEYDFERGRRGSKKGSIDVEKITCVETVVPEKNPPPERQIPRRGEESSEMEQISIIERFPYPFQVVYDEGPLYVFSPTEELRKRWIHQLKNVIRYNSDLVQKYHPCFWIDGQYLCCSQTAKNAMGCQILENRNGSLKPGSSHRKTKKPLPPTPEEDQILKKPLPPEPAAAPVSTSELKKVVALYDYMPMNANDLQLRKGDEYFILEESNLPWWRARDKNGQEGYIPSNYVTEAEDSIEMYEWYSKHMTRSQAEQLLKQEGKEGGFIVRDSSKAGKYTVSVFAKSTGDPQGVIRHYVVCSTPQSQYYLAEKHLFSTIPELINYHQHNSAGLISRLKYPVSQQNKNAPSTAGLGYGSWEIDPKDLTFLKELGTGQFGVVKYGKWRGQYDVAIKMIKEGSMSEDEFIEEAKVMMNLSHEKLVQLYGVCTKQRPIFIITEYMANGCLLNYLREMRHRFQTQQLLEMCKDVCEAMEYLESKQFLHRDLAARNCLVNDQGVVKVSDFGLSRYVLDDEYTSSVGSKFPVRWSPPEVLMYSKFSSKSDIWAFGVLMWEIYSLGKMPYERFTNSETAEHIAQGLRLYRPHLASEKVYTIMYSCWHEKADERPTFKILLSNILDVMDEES

A word on the pIC50: it is −log10 of the IC50, conventionally taken in molar units.

pIC50: −log10 of the molar value.

This data set concerns the target Btk (Homo sapiens, UniProt Q06187). The settings on record: read-out: IC50 Btk; enzymatic activity; cited from earlier work.

As to `C=CC(=O)Nc1cccc(Nc2nc(Nc3ccc(OCCOC)cc3)ncc2F)c1` [CC-292], the pIC50 was 8.23.
